From ChEMBL document CHEMBL1129281, “Effect of linking bridge modifications on the antipsychotic profile of some phthalimide and isoindolinone derivatives” (J Med Chem, 1996)

Protein sequences, listed by entry. Tags and fused reporters are not part of them.
UniProt P19327, whole entry: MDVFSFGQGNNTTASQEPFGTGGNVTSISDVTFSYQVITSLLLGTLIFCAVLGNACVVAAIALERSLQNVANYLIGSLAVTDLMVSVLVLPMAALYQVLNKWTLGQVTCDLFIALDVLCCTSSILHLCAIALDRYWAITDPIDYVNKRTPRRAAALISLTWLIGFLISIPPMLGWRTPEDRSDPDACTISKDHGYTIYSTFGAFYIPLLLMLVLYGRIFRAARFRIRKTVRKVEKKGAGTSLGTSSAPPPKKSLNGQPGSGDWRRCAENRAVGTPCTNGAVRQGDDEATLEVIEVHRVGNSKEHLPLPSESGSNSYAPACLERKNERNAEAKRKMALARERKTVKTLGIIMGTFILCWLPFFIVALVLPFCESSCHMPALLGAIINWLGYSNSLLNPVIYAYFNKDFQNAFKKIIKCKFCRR

Biological target: 5-hydroxytryptamine receptor 1A (Rattus norvegicus, UniProt P19327)
Test: Inhibition of [3H]8-OH-DPAT binding at serotonin 5-hydroxytryptamine 1A receptor from rat hippocampus tissue.
Assay type: tissue-based

IC50: 23 nM
SMILES: O=C1c2ccccc2CN1C/C=C/CN1CCN(c2nsc3ccccc23)CC1
